# Yeast mating assay B: variants of the scFv Ab-14

Data: MIT Lincoln Laboratory AlphaSeq set, Li et al. 2023, doi:10.1038/s41467-023-39022-2, as distributed in FLAb.

Binding partner: SARS-CoV-2 spike HR2 peptide, sequence PDVDLGDISGINAS.

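These sequences belong to a second round, designed from the earlier measurements on random variants of the parent. Their group label is 14L_Rand (Rand: our label for a block that the file lists under HC and that is probably the random mutants of the ten best first-round binders). The assay is AlphaSeq: two haploid yeast populations carry antibody and antigen on their surface. The frequency of each diploid, read from paired DNA barcodes, reflects how well the two displayed proteins bind. A regression on co-assayed BCL2-family reference pairs converts the normalised counts of each replicate to an apparent Kd. Each pool was mated in six replicate cultures.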

The variants keep the heavy chain, the linker and the frameworks of Ab-14 (scFv order VH, a (GGGGS)3 linker, VL).
VH: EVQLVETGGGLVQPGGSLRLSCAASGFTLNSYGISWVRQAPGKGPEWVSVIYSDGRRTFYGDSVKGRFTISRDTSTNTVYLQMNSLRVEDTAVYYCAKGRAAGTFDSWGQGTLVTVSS
VL: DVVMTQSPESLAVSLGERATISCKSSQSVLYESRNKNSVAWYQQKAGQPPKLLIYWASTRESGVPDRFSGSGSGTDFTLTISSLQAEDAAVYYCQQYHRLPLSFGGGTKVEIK

The parent's light chain CDRs are KSSQSVLYESRNKNSVA, WASTRES, QQYHRLPLS; each variant's own CDRs replace them letter for letter.
Numbers give log10(Kd / nM), so 0 is 1 nM and 3 is 1 µM. Smaller is tighter.
The mean shown is taken over the replicates in which the pair was detected.
"nd" means that the variant was in the library but no mating with the target was seen in that replicate; the authors take this as a sign of poor binding, and no number exists.
As a blank, each scFv also met three strains without target: over all light chain designs, 4% of these pairings were detected, typically at 2.64 and seldom below 1.59. For each scFv, signals with the empty controls are counted beside the result.

For KQSQSVLYESRNKNSIA / DLSTRES / QQYHELPLS, the assay gave 1.79, 0.64, 1.15, 1.23, 0.87, 1.27 (mean 1.16; controls 0 of 18).
For KFSQSVYYGSRTKNSVA / NASTRES / QQYHRLPLS, the assay gave 0.28, 0.01, 0.14, 0.01, -0.08, 0.18 (mean 0.09; controls 0 of 18).
For KSSQSWLYEAPNKNSVA / GASPRDS / QQYHRLPLS, the assay gave -0.36, 0.24, 0.02, -0.01, -0.20, 1.06 (mean 0.12; controls 0 of 18).
For KSSQVVLFESRNKNSVA / DASTGES / QQYHRLPLS, the assay gave nd, 2.90, nd, nd, nd, nd (controls 1 of 18).
For KQPQSVLVESRNKNSVA / DASTRES / QQYHRLPLS, the assay gave 0.01, 0.08, 0.16, -0.25, -0.10, 0.39 (mean 0.05; controls 0 of 18).
For KLRQSTLYESRNKNEVA / WASTRES / QQYHRLPLS, the assay gave 2.22, 1.53, 2.02, 1.87, 2.88, 1.74 (mean 2.04; controls 0 of 18).
For ISVQSWLYESRNKNSVA / GASTRWS / QQYHGLPLT, the assay gave 1.98, nd, nd, 1.56, nd, nd (mean 1.77; controls 0 of 18).
For DQSQSVLYESRNKNSVA / DFSTRES / QQYHRLPLS, the assay gave -0.17, 0.19, 0.25, 0.91, -0.28, -0.09 (mean 0.13; controls 1 of 18).
For KSSGSWLYWSRNKNSVA / GASTRES / QQYHRLPLS, the assay gave 0.20, 0.08, 0.00, -0.14, 0.13, 0.30 (mean 0.09; controls 1 of 18).
For KSSQSFLYESRNKNSVA / GASTRES / QQYLRLTLM, the assay gave 1.23, 0.77, 0.47, 0.99, 0.49, 0.71 (mean 0.78; controls 1 of 18).
For KSSISYLYNSDNKNSVA / EASTRES / QQYHRLPLS, the assay gave 0.08, 0.21, 0.21, 0.47, 0.35, 0.41 (mean 0.29; controls 0 of 18).
For KSSISYLYESRNKNSYA / EASTRES / QQYHRLPLS, the assay gave 1.24, 0.08, 0.55, 0.82, 0.54, 0.25 (mean 0.58; controls 0 of 18).
For KQSQEKLYESRNKNSVA / DASTRES / QQYHRLPLS, the assay gave 0.15, 0.30, -0.22, -0.19, -0.01, -0.06 (mean 0.00; controls 0 of 18).
For KSSQSWLYESRNRNSVA / GASYRES / QQYHRLPLS, the assay gave 0.09, 0.19, -0.38, -0.28, -0.12, -0.13 (mean -0.11; controls 1 of 18).
For HSSPSVLYESRNKNSVA / NAGTRES / QQYHRLPRS, the assay gave nd, nd, nd, nd, nd, nd (controls 2 of 18).
For KWSQSWLYESRNKNSVA / GASTQES / QQYHRLPLS, the assay gave 1.17, 0.48, 0.84, 0.76, 0.83, 0.68 (mean 0.79; controls 0 of 18).
For HSSPSVLYESRNKNSVA / NASTRES / QQYHRLPFS, the assay gave -0.02, -0.06, -0.05, -0.11, -0.15, 0.03 (mean -0.06; controls 1 of 18).
For KSLQSVLYESRNKNVVA / HASTRED / QQYHRLPLS, the assay gave 0.87, 0.92, 0.93, 0.38, 0.96, 1.22 (mean 0.88; controls 0 of 18).
For KLRQSTLMESRNYNSVA / WASTRES / QQYHRLPLS, the assay gave 0.78, 0.61, 0.82, 0.55, 0.86, 0.60 (mean 0.70; controls 3 of 18).
For KSSQSFLAESRNKNMVA / GASTRES / QQYHRLTLS, the assay gave nd, nd, nd, nd, nd, nd (controls 0 of 18).
For ALRQSTLYESRNKNSVA / WASTMES / QQYHRLPLS, the assay gave nd, nd, nd, nd, nd, nd (controls 1 of 18).
For KSSQSWLYESRNKNSVA / GASACEV / QQYHRLPLS, the assay gave nd, 1.53, nd, nd, nd, nd (controls 0 of 18).
For KSGQGVLYESRNKNSVA / GASTEES / QQYHRLPLS, the assay gave nd, 2.50, 2.26, 1.91, 2.81, nd (mean 2.37; controls 0 of 18).
For KSSQSVLFESPNKNSVA / DASTRES / QQYHRLPLS, the assay gave 0.05, -0.08, -0.07, -0.18, -0.15, 0.14 (mean -0.05; controls 1 of 18).
For HSSPSVEYESRNKNSVA / NASSRES / QQYHRLPLS, the assay gave 0.51, 0.71, 0.54, 0.75, 0.40, 0.63 (mean 0.59; controls 0 of 18).
For KQSQSILCESRNKNSVA / DASTRES / LQYHRLPLS, the assay gave nd, nd, nd, nd, nd, nd (controls 1 of 18).
For HSSPSVLYESMNKNSVA / NASTRES / QQYHRLPLS, the assay gave 0.58, 0.19, -0.04, 0.12, 0.00, 0.29 (mean 0.19; controls 0 of 18).
For KSSQSFLYESRNKNSVA / GAVTRES / QQYHRLMLS, the assay gave nd, nd, nd, nd, nd, nd (controls 0 of 18).
For KFSRSVLYESRTKSSVD / NASTRES / QQYHRLPLS, the assay gave nd, nd, nd, nd, nd, nd (controls 0 of 18).
For HTSPSVLYESRNCNSVA / NASTRES / QQKHRLPLS, the assay gave nd, nd, 2.14, 1.74, 1.96, 3.00 (mean 2.21; controls 0 of 18).
For KQSQSILYESRNKTSVA / DASTRES / QQYHRLPLS, the assay gave 1.54, 1.55, 1.78, 0.86, 1.01, 1.55 (mean 1.38; controls 0 of 18).
For KSGQGVLYESPNKNSVA / GASTREP / QQYHRLPLK, the assay gave 0.71, 0.44, 0.31, 0.24, 0.38, 0.34 (mean 0.40; controls 1 of 18).
For KSSQSVLFESRNKNSVA / DASTRES / QQIHRLPIW, the assay gave 0.60, 0.96, 0.74, 0.42, 0.58, 0.68 (mean 0.66; controls 1 of 18).
For KSSQSVAFESRNANSVA / DASTRES / QQYHRLPLS, the assay gave 0.11, 0.01, 0.24, -0.18, 0.14, 0.46 (mean 0.13; controls 1 of 18).
For KFSQSVLYEQRTKNSVA / NASTRES / QQYHRLPLS, the assay gave 0.08, -0.12, -0.11, -0.10, -0.21, 0.08 (mean -0.06; controls 3 of 18).
For KSLQSVLYESRNKNSVA / HASTRED / QQYHRTPLS, the assay gave nd, nd, nd, nd, nd, 2.93 (controls 2 of 18).

The closing 3 entries, repeated:

For KSSQSVAFESRNANSVA / DASTRES / QQYHRLPLS, the assay gave 0.11, 0.01, 0.24, -0.18, 0.14, 0.46 (mean 0.13; controls 1 of 18).
For KFSQSVLYEQRTKNSVA / NASTRES / QQYHRLPLS, the assay gave 0.08, -0.12, -0.11, -0.10, -0.21, 0.08 (mean -0.06; controls 3 of 18).
For KSLQSVLYESRNKNSVA / HASTRED / QQYHRTPLS, the assay gave nd, nd, nd, nd, nd, 2.93 (controls 2 of 18).

Values of this round are not directly comparable with the first-round values of the same sequences.
Of ten entries with the parent sequence, four were seen in most replicates (averages 0.34 to 2.37), three in one and three in none, so single entries are noisy.
The authors averaged sequences with at least three values out of six and counted those with two or fewer as poor binders.